Source: ChEMBL document CHEMBL5506053, “Explorations of Agonist Selectivity for the α9* nAChR with Novel Substituted Carbamoyl/Amido/Heteroaryl Dialkylpiperazinium Salts and Their Therapeutic Implications in Pain and Inflammation” (J Med Chem, 2024)

Sequences of proteins named here, by UniProt entry; tags and fusion partners are left off. A change or cut given only in a name is not applied to a line headed by its entry.
UniProt Q9UGM1: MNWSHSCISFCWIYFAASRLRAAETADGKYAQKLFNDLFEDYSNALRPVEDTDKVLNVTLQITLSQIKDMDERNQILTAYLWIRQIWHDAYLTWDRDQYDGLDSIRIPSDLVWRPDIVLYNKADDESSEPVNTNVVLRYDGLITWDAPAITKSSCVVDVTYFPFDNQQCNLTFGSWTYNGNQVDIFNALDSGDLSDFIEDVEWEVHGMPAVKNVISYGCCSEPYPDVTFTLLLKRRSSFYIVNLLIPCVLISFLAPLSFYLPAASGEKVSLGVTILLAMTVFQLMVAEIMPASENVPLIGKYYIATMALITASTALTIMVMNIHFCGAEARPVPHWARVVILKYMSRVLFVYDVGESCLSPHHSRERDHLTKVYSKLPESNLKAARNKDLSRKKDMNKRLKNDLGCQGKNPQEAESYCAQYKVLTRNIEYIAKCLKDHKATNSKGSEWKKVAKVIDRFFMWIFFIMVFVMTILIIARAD
UniProt Q9GZZ6: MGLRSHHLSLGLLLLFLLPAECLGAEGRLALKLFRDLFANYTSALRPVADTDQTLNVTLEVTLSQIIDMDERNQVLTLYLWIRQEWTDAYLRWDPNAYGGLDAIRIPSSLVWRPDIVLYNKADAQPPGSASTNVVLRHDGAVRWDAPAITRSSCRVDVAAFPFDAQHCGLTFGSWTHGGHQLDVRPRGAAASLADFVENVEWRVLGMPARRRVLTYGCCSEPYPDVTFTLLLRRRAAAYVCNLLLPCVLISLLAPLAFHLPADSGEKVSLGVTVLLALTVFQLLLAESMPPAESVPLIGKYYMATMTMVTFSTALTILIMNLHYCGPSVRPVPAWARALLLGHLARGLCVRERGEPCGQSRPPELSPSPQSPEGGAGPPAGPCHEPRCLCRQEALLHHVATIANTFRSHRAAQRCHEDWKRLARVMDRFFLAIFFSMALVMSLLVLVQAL
UniProt P36544, whole entry: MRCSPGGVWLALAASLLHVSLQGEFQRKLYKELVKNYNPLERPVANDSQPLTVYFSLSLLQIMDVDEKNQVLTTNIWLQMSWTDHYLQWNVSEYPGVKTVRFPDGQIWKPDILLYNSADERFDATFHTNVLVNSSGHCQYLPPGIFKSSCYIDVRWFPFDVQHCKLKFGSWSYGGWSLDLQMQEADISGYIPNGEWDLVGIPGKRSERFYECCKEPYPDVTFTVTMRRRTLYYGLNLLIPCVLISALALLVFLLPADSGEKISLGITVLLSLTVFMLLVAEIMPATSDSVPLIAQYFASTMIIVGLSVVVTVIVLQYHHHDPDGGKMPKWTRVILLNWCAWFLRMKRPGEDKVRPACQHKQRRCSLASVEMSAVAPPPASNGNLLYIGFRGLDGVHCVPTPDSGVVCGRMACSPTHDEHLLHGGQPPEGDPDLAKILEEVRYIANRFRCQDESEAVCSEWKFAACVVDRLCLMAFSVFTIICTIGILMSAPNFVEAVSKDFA

What was measured:
[1] = target: Neuronal acetylcholine receptor; alpha9/alpha10 (Homo sapiens) (UniProt Q9UGM1+Q9GZZ6); assay: Agonist activity at alpha9alpha10 nAChR (unknown origin) assessed as fold change in maximum response (Imax) relative to acetylcholine; format: protein-complex assay; conditions: filed as agonist
[2] = target: Neuronal acetylcholine receptor subunit alpha-7 (Homo sapiens, UniProt P36544); assay: Agonist activity at human alpha7 nAChR expressed as xenopus laevis oocytes assessed as increase in receptor desensitization by measuring fold change in peak current response at 30 uM incubated for 120 secs presence of PNU-120596 by two-electrode voltage-clamp electrophysiology method relative to acetylcholine; format: cell-based; conditions: Oocyte, filed as agonist, time 120.0 sec
[3] = Selectivity ratio for agonist activity at alpha7 nAChR (unknown origin) to agonist activity at alpha9 nAChR (unknown origin)

SMILES: CC[N+]1(CC)CCN(c2ccc(C(=O)Nc3cccc(C)n3)cc2)CC1.[I-]
- fold change (FC) [1]: 0.9
- fold change (FC) [2]: 0.17
- Selectivity ratio [3]: 10
